# Literature values in patent publication US20240199639A1, “PRETOMANID AMORPHOUS FORM” (THE GLOBAL ALLIANCE FOR TB DRUG DEVELOPMENT, INC., priority 2021, published 2024).
# System: drug-resistant clinical isolates
# Conditions: cited from earlier work
smiles,measurement,value
"O=[N+]([O-])c1cn2c(n1)OC[C@@H](OCc1ccc(OC(F)(F)F)cc1)C2 [PA-824, (6S)-2-nitro-6-{[4-(trifluoromethoxy)benzyl]oxy}-6,7-dihydro-5H-imidazo[2,1-b][1,3]oxazine]",activity in vitro against drug-resistant clinical isolates,activity in vitro against all tested drug-resistant clinical isolates
